ChEMBL document CHEMBL2163262 (J Med Chem, 2012)

Amino acid sequences for entries named in this document (tags omitted). A change or cut given only in a name is not applied to a line headed by its entry.
UniProt Q9Y5X5: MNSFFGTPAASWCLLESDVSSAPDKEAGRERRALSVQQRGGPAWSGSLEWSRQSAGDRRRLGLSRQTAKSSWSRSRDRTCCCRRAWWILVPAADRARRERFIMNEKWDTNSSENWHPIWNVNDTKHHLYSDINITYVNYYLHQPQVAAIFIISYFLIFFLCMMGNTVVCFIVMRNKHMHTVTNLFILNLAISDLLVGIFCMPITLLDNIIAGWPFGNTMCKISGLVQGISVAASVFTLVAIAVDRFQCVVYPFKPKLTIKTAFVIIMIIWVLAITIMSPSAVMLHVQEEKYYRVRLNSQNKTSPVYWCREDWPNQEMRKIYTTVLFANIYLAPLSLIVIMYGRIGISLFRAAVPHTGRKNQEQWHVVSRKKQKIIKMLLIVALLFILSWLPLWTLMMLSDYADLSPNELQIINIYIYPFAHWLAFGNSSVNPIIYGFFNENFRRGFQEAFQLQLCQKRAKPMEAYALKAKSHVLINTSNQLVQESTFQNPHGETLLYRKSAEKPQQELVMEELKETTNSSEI
UniProt Q9GZQ6, whole entry F311A: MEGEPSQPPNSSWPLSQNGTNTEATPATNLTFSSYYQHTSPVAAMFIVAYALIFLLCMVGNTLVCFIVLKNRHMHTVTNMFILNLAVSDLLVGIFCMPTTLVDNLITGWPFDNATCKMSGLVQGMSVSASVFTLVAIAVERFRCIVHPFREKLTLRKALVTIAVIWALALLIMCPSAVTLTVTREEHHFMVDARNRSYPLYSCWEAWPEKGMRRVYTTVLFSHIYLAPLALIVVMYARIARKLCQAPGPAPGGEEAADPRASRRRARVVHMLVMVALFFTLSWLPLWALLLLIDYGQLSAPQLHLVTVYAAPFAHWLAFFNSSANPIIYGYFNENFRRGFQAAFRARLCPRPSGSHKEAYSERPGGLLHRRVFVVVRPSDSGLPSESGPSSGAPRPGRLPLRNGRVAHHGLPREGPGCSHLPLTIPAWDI
UniProt Q9GZQ6, whole entry E205A: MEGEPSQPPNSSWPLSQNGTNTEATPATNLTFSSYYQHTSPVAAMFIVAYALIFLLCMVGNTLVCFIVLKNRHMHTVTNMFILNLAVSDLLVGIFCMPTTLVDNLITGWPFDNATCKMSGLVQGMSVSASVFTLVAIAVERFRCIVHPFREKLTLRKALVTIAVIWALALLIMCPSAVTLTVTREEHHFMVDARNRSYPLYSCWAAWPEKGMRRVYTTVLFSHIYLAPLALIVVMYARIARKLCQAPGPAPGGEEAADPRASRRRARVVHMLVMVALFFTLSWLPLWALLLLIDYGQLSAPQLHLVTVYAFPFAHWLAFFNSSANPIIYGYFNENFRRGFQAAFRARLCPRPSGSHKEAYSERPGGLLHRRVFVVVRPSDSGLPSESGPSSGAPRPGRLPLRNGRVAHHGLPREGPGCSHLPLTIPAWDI
UniProt Q9GZQ6, whole entry Y309A: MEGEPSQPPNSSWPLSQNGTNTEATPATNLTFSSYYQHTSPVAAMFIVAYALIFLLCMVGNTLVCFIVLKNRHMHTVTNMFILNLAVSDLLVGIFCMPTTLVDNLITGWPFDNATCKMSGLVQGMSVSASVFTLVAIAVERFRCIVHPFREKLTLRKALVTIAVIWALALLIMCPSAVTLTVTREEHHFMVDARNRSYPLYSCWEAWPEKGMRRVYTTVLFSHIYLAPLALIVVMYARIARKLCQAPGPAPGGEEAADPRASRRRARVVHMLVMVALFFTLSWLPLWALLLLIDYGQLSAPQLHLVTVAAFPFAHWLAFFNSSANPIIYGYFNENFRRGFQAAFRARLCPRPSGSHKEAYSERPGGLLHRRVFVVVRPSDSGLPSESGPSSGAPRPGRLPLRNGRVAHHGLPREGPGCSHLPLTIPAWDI
UniProt Q9GZQ6, whole entry D294A: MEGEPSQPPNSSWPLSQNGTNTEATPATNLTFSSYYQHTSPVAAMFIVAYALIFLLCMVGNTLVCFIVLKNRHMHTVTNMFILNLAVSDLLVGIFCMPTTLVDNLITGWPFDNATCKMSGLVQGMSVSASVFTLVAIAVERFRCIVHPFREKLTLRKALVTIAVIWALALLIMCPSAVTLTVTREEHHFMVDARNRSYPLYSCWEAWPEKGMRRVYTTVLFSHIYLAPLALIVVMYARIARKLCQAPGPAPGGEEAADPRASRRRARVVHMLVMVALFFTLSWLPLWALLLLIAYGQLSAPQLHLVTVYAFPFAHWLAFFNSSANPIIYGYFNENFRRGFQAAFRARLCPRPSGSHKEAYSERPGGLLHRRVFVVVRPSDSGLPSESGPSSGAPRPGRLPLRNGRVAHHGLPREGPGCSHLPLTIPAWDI
UniProt Q9GZQ6, whole entry H304A: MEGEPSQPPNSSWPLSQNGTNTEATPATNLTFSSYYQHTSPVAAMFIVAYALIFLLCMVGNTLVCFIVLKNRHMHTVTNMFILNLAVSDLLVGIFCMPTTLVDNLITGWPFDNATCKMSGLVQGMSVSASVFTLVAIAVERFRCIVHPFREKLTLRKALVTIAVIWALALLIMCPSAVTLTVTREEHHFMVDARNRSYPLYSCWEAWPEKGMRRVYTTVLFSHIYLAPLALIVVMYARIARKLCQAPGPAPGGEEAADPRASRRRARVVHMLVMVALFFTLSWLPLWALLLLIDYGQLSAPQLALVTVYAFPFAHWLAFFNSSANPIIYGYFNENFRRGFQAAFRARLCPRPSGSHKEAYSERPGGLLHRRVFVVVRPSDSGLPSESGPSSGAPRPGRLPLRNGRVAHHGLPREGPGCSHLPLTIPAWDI
UniProt Q9GZQ6, whole entry Y216A: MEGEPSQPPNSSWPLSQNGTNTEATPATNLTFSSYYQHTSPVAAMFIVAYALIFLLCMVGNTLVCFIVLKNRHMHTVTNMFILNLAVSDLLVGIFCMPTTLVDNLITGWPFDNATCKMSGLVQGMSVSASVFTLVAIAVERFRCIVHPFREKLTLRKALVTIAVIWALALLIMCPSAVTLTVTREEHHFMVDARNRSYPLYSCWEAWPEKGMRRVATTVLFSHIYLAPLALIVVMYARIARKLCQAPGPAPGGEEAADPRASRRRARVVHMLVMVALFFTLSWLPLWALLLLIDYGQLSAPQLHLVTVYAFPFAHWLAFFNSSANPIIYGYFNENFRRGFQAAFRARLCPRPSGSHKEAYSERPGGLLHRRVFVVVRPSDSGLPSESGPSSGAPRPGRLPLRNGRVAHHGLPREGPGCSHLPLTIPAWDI

Tests used:
[1] = target: T1, Neuropeptide FF receptor 2 (Homo sapiens, UniProt Q9Y5X5); test: Agonist activity at human NPFF2 receptor expressed in COS1 cells assessed as [3H]inositol phosphate accumulation at 10 uM after 2 hrs by liquid scintillation counting relative to NPFF; assay type: functional, cell-based; details: COS-1
[2] = target: T2, Neuropeptide FF receptor 1 (Homo sapiens, UniProt Q9GZQ6); test: Partial agonist activity at human NPFF1 receptor expressed in COS1 cells assessed as [3H]inositol phosphate accumulation at 10 uM after 2 hrs by liquid scintillation counting relative to NPVF; assay type: functional, cell-based; details: COS-1
[3] = target: T1, Neuropeptide FF receptor 2; test: Agonist activity at human NPFF2 receptor expressed in COS1 cells assessed as [3H]inositol phosphate accumulation after 2 hrs by liquid scintillation counting; assay type: functional, cell-based, COS-1
[4] = target: Neuropeptide FF receptor 1 (Homo sapiens, UniProt Q9GZQ6, F311A); test: Agonist activity at human NPFF1 receptor F/Y7.35A mutant assessed as [3H]inositol phosphate accumulation after 2 hrs by liquid scintillation counting; assay type: functional
Method in brief: (§1)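 IP accumulation in COS-7 cells transiently cotransfected with human NPFFR (Ala point mutant or wt) plus chimeric G protein. Cells seeded at 60,000/well and grown to subconfluency. Compounds were dissolved in DMSO and diluted in DMEM with 10 mM LiCl (1% v/v DMSO final). Stimulation lasted 2 h.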

[5] = target: Neuropeptide FF receptor 1 (Homo sapiens, UniProt Q9GZQ6, E205A); test: Agonist activity at human NPFF1 receptor E5.27A mutant assessed as [3H]inositol phosphate accumulation after 2 hrs by liquid scintillation counting; assay type: functional; method in brief: as §1
[6] = target: Neuropeptide FF receptor 1 (Homo sapiens, UniProt Q9GZQ6, Y309A); test: Agonist activity at human NPFF1 receptor Y7.33A mutant assessed as [3H]inositol phosphate accumulation after 2 hrs by liquid scintillation counting; assay type: functional; method in brief: as §1
[7] = target: Neuropeptide FF receptor 1 (Homo sapiens, UniProt Q9GZQ6, D294A); test: Agonist activity at human NPFF1 receptor D6.59A mutant assessed as [3H]inositol phosphate accumulation after 2 hrs by liquid scintillation counting; assay type: functional; method in brief: as §1
[8] = target: T2, Neuropeptide FF receptor 1; test: Agonist activity at human NPFF1 receptor expressed in […] assessed as [3H]inositol phosphate accumulation after 2 hrs by liquid scintillation counting; assay type: functional, cell-based, COS-1; method in brief: as §1
[9] = target: Neuropeptide FF receptor 1 (Homo sapiens, UniProt Q9GZQ6, H304A); test: Agonist activity at human NPFF1 receptor H/Q6.69A mutant assessed as [3H]inositol phosphate accumulation after 2 hrs by liquid scintillation counting; assay type: functional
[10] = target: Neuropeptide FF receptor 1 (Homo sapiens, UniProt Q9GZQ6, Y216A); test: Agonist activity at human NPFF1 receptor Y5.38A mutant assessed as [3H]inositol phosphate accumulation after 2 hrs by liquid scintillation counting; assay type: functional; method in brief: as §1

Structure (SMILES)	Emax [1]	Emax [2]	EC50 [3]	EC50 [4]	EC50 [5]	EC50 [6]	EC50 [7]	EC50 [8]	EC50 [9]	EC50 [10]
N=C(N)N/N=C/c1ccc(Br)c(Br)c1	107%	–	–	–	–	–	–	–	–	–
N=C(N)N/N=C/c1ccc(Cl)c(C(F)(F)F)c1	92%	40%	1190 nM	–	–	–	–	–	–	–
CC(C)C[C@H](NC(=O)[C@H](CC(N)=O)NC(=O)[C@@H]1CCCN1C(=O)[C@@H](N)C(C)C)C(=O)N1CCC[C@H]1C(=O)N[C@@H](CCC(N)=O)C(=O)N[C@@H](CCCNC(=N)N)C(=O)N[C@@H](Cc1ccccc1)C(N)=O	–	–	–	16 nM	7880 nM	4.9 nM	99 nM	1.7 nM	7.7 nM	314 nM
